The term IC50 denotes the concentration that gives 50% inhibition.

Protein sequences, listed by entry. Tags and fused reporters are not part of them. Residues count along the entry.
UniProt P25774, 115-331: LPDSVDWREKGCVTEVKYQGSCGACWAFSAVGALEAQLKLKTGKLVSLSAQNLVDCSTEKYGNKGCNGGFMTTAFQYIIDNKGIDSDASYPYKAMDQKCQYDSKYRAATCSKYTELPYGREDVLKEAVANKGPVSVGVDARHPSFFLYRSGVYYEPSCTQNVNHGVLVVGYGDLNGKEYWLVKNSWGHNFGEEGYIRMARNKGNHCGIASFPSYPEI

For this experiment, the target named is Recombinant human cathepsin S (CatS) (Homo sapiens, UniProt P25774). The experiment can be described thus: biochemical.

In the case of `CN(C)C1CCN(C(=O)CSc2cc(-c3nn(CCCN4CCC(N5CCCC5=O)CC4)c4c3CN(S(C)(=O)=O)CC4)ccc2C(F)(F)F)CC1` [Example 87, 1-{1-[3-(3-{3-[2-(4-Dimethylamino-piperidin-1-yl)-2-oxo-ethylsulfanyl]-4-trifluoromethyl-phenyl}-5-methanesulfonyl-4,5,6,7-tetrahydro-pyrazolo[4,3-c]pyridin-1-yl)-propyl]-piperidin-4-yl}-pyrrolidin-2-one], the IC50 worked out at 0.58 µM.

Consider `CN(C)C1CCN(CCSc2cc(-c3nn(CCCN4CCC(N5CCCC5=O)CC4)c4c3CN(S(C)(=O)=O)CC4)ccc2C(F)(F)F)CC1` [Example 34, 1-{1-[3-(3-{3-[2-(4-Dimethylamino-piperidin-1-yl)-ethylsulfanyl]-4-trifluoromethyl-phenyl}-5-methanesulfonyl-4,5,6,7-tetrahydro-pyrazolo[4,3-c]pyridin-1-yl)-propyl]-piperidin-4-yl}-pyrrolidin-2-one], for which the IC50 was 1.57 µM.

As to `CCCNCCSc1cc(-c2nn(CCCN3CCN(C4CC4)CC3)c3c2CN(S(C)(=O)=O)CC3)ccc1C(F)(F)F` [Example 342, N-(2-{[5-{1-[3-(4-Cyclopropylpiperazin-1-yl)propyl]-5-(methylsulfonyl)-4,5,6,7-tetrahydro-1H-pyrazolo[4,3-c]pyridin-3-yl}-2-(trifluoromethyl)phenyl]sulfanyl}ethyl)propan-1-amine], the IC50 came out at 0.44 µM.

In the case of `CS(=O)(=O)N1CCc2c(c(-c3ccc(C(F)(F)F)c(SCCN4CCCC(F)(F)C4)c3)nn2C[C@@H](O)CN2CC3CCCC3C2)C1` (stereo partly drawn) [Example 618, (2S)-1-{3-[3-{[2-(3,3-Difluoropiperidin-1-yl)ethyl]sulfanyl}-4-(trifluoromethyl)phenyl]-5-(methylsulfonyl)-4,5,6,7-tetrahydro-1H-pyrazolo[4,3-c]pyridin-1-yl}-3-(hexahydrocyclopenta[c]pyrrol-2(1H)-yl)propan-2-ol], the IC50 was determined as 0.13 µM.

For `CS(=O)(=O)N1CCc2c(c(-c3ccc(C(F)(F)F)c(SCCN4CCOCC4)c3)nn2CCCN2CCC(N3CCCC3=O)CC2)C1` [Example 22, 1-[1-(3-{5-Methanesulfonyl-3-[3-(2-morpholin-4-yl-ethylsulfanyl)-4-trifluoromethyl-phenyl]-4,5,6,7-tetrahydro-pyrazolo[4,3-c]pyridin-1-yl}-propyl)-piperidin-4-yl]-pyrrolidin-2-one], the IC50 was 0.27 µM.

For the compound `COc1ccccc1N1CCN(CC(O)Cn2nc(-c3ccc(C(F)(F)F)c(SCCN4CCCCC4)c3)c3c2CCNC3)CC1` (stereo not shown) [Example 453, 1-{4-[2-(Methyloxy)phenyl]piperazin-1-yl}-3-(3-{3-[(2-piperidin-1-ylethyl)sulfanyl]-4-(trifluoromethyl)phenyl}-4,5,6,7-tetrahydro-1H-pyrazolo[4,3-c]pyridin-1-yl)propan-2-ol], the IC50 turned out to be 0.92 µM.

As for `CS(=O)(=O)N1CCc2c(c(-c3ccc(C(F)(F)F)c(SCCNCCc4c[nH]cn4)c3)nn2CCCN2CCC(N3CCCC3=O)CC2)C1` [Example 719, 1-(1-{3-[3-{3-[(2-{[2-(1H-Imidazol-4-yl)ethyl]amino}ethyl)sulfanyl]-4-(trifluoromethyl)phenyl}-5-(methylsulfonyl)-4,5,6,7-tetrahydro-1H-pyrazolo[4,3-c]pyridin-1-yl]propyl}piperidin-4-yl)pyrrolidin-2-one], the IC50 is 2.34 µM.

As for `CS(=O)(=O)N1CCc2c(c(-c3ccc(C(F)(F)F)c(SCCN4CCOCC4)c3)nn2CC(O)CN2CCC(NC(=O)CO)CC2)C1` (stereo not shown) [Example 657, 2-Hydroxy-N-(1-{2-hydroxy-3-[5-(methylsulfonyl)-3-{3-[(2-morpholin-4-ylethyl)sulfanyl]-4-(trifluoromethyl)phenyl}-4,5,6,7-tetrahydro-1H-pyrazolo[4,3-c]pyridin-1-yl]propyl}piperidin-4-yl)acetamide], the IC50 was determined as 0.17 µM.

For `Oc1cccc(N2CCN(CC(O)Cn3nc(-c4ccc(C(F)(F)F)c(SCCN5CCCCC5)c4)c4c3CCNC4)CC2)c1` (stereo not shown) [Example 383, 3-{4-[2-Hydroxy-3-(3-{3-[(2-piperidin-1-ylethyl)sulfanyl]-4-(trifluoromethyl)phenyl}-4,5,6,7-tetrahydro-1H-pyrazolo[4,3-c]pyridin-1-yl)propyl]piperazin-1-yl}phenol], the IC50 is 0.8 µM.

For the compound `CS(=O)(=O)NC1CCN(CC(O)Cn2nc(-c3ccc(C(F)(F)F)c(SCCN4CCC(O)CC4)c3)c3c2CCN(S(C)(=O)=O)C3)CC1` (stereo not shown) [Example 781, N-[1-(2-Hydroxy-3-{3-[3-{[2-(4-hydroxypiperidin-1-yl)ethyl]sulfanyl}-4-(trifluoromethyl)phenyl]-5-(methylsulfonyl)-4,5,6,7-tetrahydro-1H-pyrazolo[4,3-c]pyridin-1-yl}propyl)piperidin-4-yl]methanesulfonamide], the IC50 was found to be 0.29 µM.

Take `CS(=O)(=O)N1CCc2c(c(-c3ccc(Cl)c(SCCOc4ccccc4)c3)nn2CCCN2CCOCC2)C1` [Example 133, 3-[4-Chloro-3-(2-phenoxy-ethylsulfanyl)-phenyl]-5-methanesulfonyl-1-(3-morpholin-4-yl-propyl)-4,5,6,7-tetrahydro-1H-pyrazolo[4,3-c]pyridine]: the IC50 was 0.6 µM.

Consider `CN(C)C(=O)N1CCc2c(c(-c3ccc(C(F)(F)F)c(SCCN4CCC(F)CC4)c3)nn2C[C@@H](O)CN2CCCCC2)C1` [Example 367, 3-[3-{[2-(4-Fluoropiperidin-1-yl)ethyl]sulfanyl}-4-(trifluoromethyl)phenyl]-1-[(2S)-2-hydroxy-3-piperidin-1-ylpropyl]-N,N-dimethyl-1,4,6,7-tetrahydro-5H-pyrazolo[4,3-c]pyridine-5-carboxamide], for which the IC50 was found to be 1.05 µM.

Consider `CC1CCCN1CCSc1cc(-c2nn(CCCN3CCC(N4CCCC4=O)CC3)c3c2CN(S(C)(=O)=O)CC3)ccc1C(F)(F)F` (stereo not shown) [Example 28, 1-{1-[3-(5-Methanesulfonyl-3-{3-[2-(2-methyl-pyrrolidin-1-yl)-ethylsulfanyl]-4-trifluoromethyl-phenyl}-4,5,6,7-tetrahydro-pyrazolo[4,3-c]pyridin-1-yl)-propyl]-piperidin-4-yl}-pyrrolidin-2-one], for which the IC50 came to 0.56 µM.

For `CC(C)(C)OC(=O)NC1(C(=O)N2CCc3c(c(-c4ccc(C(F)(F)F)c(SCCN5CCC(F)CC5)c4)nn3CC(O)CN3CCCCC3)C2)CC1` (stereo not shown) [Example 837, 1,1-Dimethylethyl [1-({3-[3-{[2-(4-fluoropiperidin-1-yl)ethyl]sulfanyl}-4-(trifluoromethyl)phenyl]-1-(2-hydroxy-3-piperidin-1-ylpropyl)-1,4,6,7-tetrahydro-5H-pyrazolo[4,3-c]pyridin-5-yl}carbonyl)cyclopropyl]carbamate], the IC50 was found to be 0.65 µM.

With `CS(=O)(=O)N1CCc2c(c(-c3ccc(C(F)(F)F)c(SCCN4CCCC(CO)C4)c3)nn2CC(O)CN2CCC(N3CCCC3)CC2)C1` (stereo not shown) [Example 755, 1-{3-[3-({2-[3-(Hydroxymethyl)piperidin-1-yl]ethyl}sulfanyl)-4-(trifluoromethyl)phenyl]-5-(methylsulfonyl)-4,5,6,7-tetrahydro-1H-pyrazolo[4,3-c]pyridin-1-yl}-3-(4-pyrrolidin-1-ylpiperidin-1-yl)propan-2-ol], the IC50 turned out to be 0.55 µM.

For the compound `CS(=O)(=O)N1CCc2c(c(-c3ccc(C(F)(F)F)c(SCCN4CCCCC4)c3)nn2CC(O)CN2CCN(c3c(Cl)cncc3Cl)CC2)C1` (stereo not shown) [Example 866, 1-[4-(3,5-Dichloropyridin-4-yl)piperazin-1-yl]-3-[5-(methylsulfonyl)-3-{3-[(2-piperidin-1-ylethyl)sulfanyl]-4-(trifluoromethyl)phenyl}-4,5,6,7-tetrahydro-1H-pyrazolo[4,3-c]pyridin-1-yl]propan-2-ol], the IC50 was 0.02 µM.

Consider `CC(=O)N1CCc2c(c(-c3ccc(C(F)(F)F)c(SCC(=O)N4CCCC4)c3)nn2CC(O)CN2Cc3ccccc3C2)C1` (stereo not shown) [Example 339, 1-(5-Acetyl-3-{3-[(2-oxo-2-pyrrolidin-1-ylethyl)sulfanyl]-4-(trifluoromethyl)phenyl}-4,5,6,7-tetrahydro-1H-pyrazolo[4,3-c]pyridin-1-yl)-3-(1,3-dihydro-2H-isoindol-2-yl)propan-2-ol], for which the IC50 stood at 0.17 µM.

Turning to `CN1CCN(C(=O)CSc2cc(-c3nn(CCCN4CCC(N5CCCC5=O)CC4)c4c3CN(S(C)(=O)=O)CC4)ccc2C(F)(F)F)CC1` [Example 103], the IC50 stood at 0.77 µM.

For the compound `CS(=O)(=O)N1CCc2c(c(-c3ccc(C(F)(F)F)c(SCC(=O)Nc4ccc(F)cc4)c3)nn2CCCN2CCC(N3CCCC3=O)CC2)C1` [Example 84, N-(4-Fluoro-phenyl)-2-[5-(5-methanesulfonyl-1-{3-[4-(2-oxo-pyrrolidin-1-yl)-piperidin-1-yl]-propyl}-4,5,6,7-tetrahydro-1H-pyrazolo[4,3-c]pyridin-3-yl)-2-trifluoromethyl-phenylsulfanyl]-acetamide], the IC50 worked out at 0.42 µM.

For `CS(=O)(=O)N1CCc2c(c(-c3ccc(C(F)(F)F)c(SCCN4CCC(F)(F)CC4)c3)nn2C[C@@H](O)CN2CCC(c3ccccn3)CC2)C1` [Example 212, (2S)-1-{3-[3-{[2-(4,4-Difluoropiperidin-1-yl)ethyl]sulfanyl}-4-(trifluoromethyl)phenyl]-5-(methylsulfonyl)-4,5,6,7-tetrahydro-1H-pyrazolo[4,3-c]pyridin-1-yl}-3-(4-pyridin-2-ylpiperidin-1-yl)propan-2-ol], the IC50 was 0.01 µM.

As to `CS(=O)(=O)N1CCc2c(c(-c3ccc(C(F)(F)F)c(SCCN4CCCCC4)c3)nn2CC(O)CN2CCC(n3cn[nH]c3=O)CC2)C1` (stereo not shown) [Example 678, 4-(1-{2-Hydroxy-3-[5-(methylsulfonyl)-3-{3-[(2-piperidin-1-ylethyl)sulfanyl]-4-(trifluoromethyl)phenyl}-4,5,6,7-tetrahydro-1H-pyrazolo[4,3-c]pyridin-1-yl]propyl}piperidin-4-yl)-2,4-dihydro-3H-1,2,4-triazol-3-one], the IC50 amounted to 0.07 µM.

Take `CS(=O)(=O)N1CCc2c(c(-c3ccc(C(F)(F)F)c(SCC(=O)N4CCOCC4)c3)nn2CC(O)CN2CC[C@H](O)C2)C1` (stereo partly drawn) [Example 407, (3S)-1-{2-Hydroxy-3-[5-(methylsulfonyl)-3-{3-[(2-morpholin-4-yl-2-oxoethyl)sulfanyl]-4-(trifluoromethyl)phenyl}-4,5,6,7-tetrahydro-1H-pyrazolo[4,3-c]pyridin-1-yl]propyl}pyrrolidin-3-ol]: the IC50 was determined as 0.24 µM.
